The entries are a selection whose mix differs from that of the whole data set. Records with an inconclusive call do not appear. Calls of active or inactive are those of the source.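 The calls were made as follows: active = fitted dose curve passes 500% activation at or below the top valid tested dose; inconclusive = no clear call, values can overlap the other calls; inactive = the rest, opposite-direction activity included.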
Experiment: HIF reporter activators, metal chelation test – cell-based, iron medium, luminescence, U2OS, dry powder, mechanism study for HIF activator project, dose response (AID 493228)
Settings: U2OS HRE-luciferase reporter, at 38 µM (top of the series)
How it was run: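 Test system: U2OS 3×HRE-luciferase reporter cells. Amount: 6,000 cells/well. Doses: 8-point dilution series in 3-fold steps. Times: cells plated 24 h before dosing, compound exposure 24 h at 37 °C. Measured by: Steady-Glo luminescence.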

With `O=c1[nH]c2ccccc2n1C1CCN(Cc2ccc(O)c3ncccc23)CC1` the activation was inactive: 22.5%.

Reference: PubChem BioAssay AID493228 (Broad Institute, 2011)
